Here are results for 1 molecule from paper PMC4007584 (Journal of biomolecular screening, 2013).

By UniProt entry, the sequences of proteins in these tests, tags left out. Residues count along the entry.
UniProt Q9Y233, 715-1055 limits assumed: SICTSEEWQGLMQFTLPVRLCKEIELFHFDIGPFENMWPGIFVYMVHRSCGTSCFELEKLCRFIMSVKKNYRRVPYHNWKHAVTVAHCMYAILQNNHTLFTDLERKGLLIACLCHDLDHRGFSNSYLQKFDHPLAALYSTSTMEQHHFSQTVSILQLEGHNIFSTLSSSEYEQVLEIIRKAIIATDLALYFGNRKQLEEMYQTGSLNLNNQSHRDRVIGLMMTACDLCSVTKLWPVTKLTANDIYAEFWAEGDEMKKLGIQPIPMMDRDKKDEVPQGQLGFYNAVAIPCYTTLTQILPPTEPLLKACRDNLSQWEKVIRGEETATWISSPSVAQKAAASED

Structures can show the parent of a compound that is named as a salt.

This experiment addresses catalytic domain of PDE10A2 (Homo sapiens, UniProt Q9Y233). The experiment in a line: PDE10A calorimetric activity assay. The class given is biochemical.

Turning to `COc1ccc(Cc2nccc3cc(OC)c(OC)cc23)cc1OC` [Papaverine, papaverine hydrochloride], the affinity, expressed as Ki, was 1000 ± 140 nM.
